Sequences of proteins named here, by UniProt entry; tags and fusion partners are left off.
UniProt Q8TBC4, whole entry: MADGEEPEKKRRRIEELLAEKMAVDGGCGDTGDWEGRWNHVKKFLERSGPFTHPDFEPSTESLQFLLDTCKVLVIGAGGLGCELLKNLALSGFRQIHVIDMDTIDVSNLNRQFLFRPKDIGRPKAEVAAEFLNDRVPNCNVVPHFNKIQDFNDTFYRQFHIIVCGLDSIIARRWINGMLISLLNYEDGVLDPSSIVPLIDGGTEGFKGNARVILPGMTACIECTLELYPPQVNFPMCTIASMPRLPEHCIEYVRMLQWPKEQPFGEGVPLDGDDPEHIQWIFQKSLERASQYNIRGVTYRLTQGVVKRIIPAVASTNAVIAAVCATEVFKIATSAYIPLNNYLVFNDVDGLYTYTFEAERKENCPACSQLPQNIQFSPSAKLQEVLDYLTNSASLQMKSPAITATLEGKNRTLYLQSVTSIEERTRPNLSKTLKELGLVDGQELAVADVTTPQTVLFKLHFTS
UniProt Q13564, whole entry partner: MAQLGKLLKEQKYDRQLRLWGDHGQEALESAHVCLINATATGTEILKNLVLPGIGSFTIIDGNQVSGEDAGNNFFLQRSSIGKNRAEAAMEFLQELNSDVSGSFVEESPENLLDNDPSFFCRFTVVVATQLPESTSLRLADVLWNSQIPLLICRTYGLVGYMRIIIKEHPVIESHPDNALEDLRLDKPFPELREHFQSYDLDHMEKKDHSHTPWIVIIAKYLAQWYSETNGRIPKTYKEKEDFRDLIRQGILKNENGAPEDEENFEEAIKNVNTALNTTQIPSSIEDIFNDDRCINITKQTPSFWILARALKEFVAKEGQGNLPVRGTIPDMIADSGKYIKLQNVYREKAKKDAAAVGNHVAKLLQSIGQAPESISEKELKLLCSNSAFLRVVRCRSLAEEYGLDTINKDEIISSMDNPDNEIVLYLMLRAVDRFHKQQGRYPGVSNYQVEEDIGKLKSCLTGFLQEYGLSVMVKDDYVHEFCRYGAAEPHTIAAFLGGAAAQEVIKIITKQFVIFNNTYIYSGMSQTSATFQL

The molecules below were run on human colon cancer cells HCT-116 (assay: Inhibition of proliferation of HCT-116 cells (SRB method)). Conditions: read-out: HCT-116 IC50*, 72 h.
Assay type: cell-based
Method: The inhibitory effects of the compounds on the proliferation of human colon cancer cells HCT-116 were detected by a sulforodamine B (SRB) method. The specific steps were as follows: HCT-116 cells in the logarithmic phase were seeded into a 96-well culture plate at a suitable density with 90 μL per well. After overnight cultivation, the compounds at different concentrations were added to act for 72 h, and a solvent control group (negative control) was set. After 72 h of the compounds acting on the cells, the effects of the compounds on cell proliferation were detected using the SRB method as follows. The culture solution was discarded, and 100 μL/well of 10% trichloroacetic acid (TCA) pre-cooled at 4° C. was added, fixed at 4° C. for 1 h, then washed with distilled water for 5 times, and naturally dried in the air; 100 μL/well of SRB (4 mg/ml) solution prepared by 1% glacial acetic acid was added, stained at room temperature for 15 minutes; the supernatant was removed, washed with 1% acetic acid for 5 times, and air dried; 150 μl/well of Tris (10 mM) solution was added, then left at room temperature for 15 minutes; finally, a full-wavelength microplate enzyme-labeled instrument SpectraMax 190 was used to read with a measurement wavelength of 560 nm. The inhibition rate (%) of the compound on tumor cell growth was calculated by the following formula: [formula]
For `COCC(=O)N[C@H]1Cc2ccccc2[C@H]1Nc1ncnc2c1nnn2C1CC(O)C(COS(N)(=O)=O)C1` (some centres unmarked), the IC50 was > 100 µM. With `CC(C)(C)OC(=O)N1CCC2(CC1)C[C@H](Nc1ncnc3c1nnn3C1CC(O)C(COS(N)(=O)=O)C1)c1ccccc12` (some centres unmarked) the IC50 was < 0.01 µM. `COCC(=O)N[C@@H]1Cc2ccccc2[C@H]1Nc1ncnc2c1nnn2C1CC(O)C(COS(N)(=O)=O)C1` (some centres unmarked) was tested, and the IC50 was > 100 µM. In the case of `CO[C@H]1Cc2ccccc2[C@H]1Nc1ncnc2c1nnn2C1CC(O)C(COS(N)(=O)=O)C1` (some centres unmarked), the IC50 is reported as < 0.01 µM.

The molecules below were run against NAE enzyme (human recombinant APPBP1/UBA3) (Homo sapiens (Human), UniProt Q8TBC4) (assay: Inhibition of NAE enzyme activity at the molecular level (HTRF)). Conditions: inhibition rate of NAE enzyme activity at 10 μM compound.
Assay type: biochemical
With `COCC(=O)N[C@H]1Cc2ccccc2[C@H]1Nc1ncnc2c1nnn2C1CC(O)C(COS(N)(=O)=O)C1` (some centres unmarked) the “IR (10 μM)” value was 85.0%. `CC(C)(C)OC(=O)N1CCC2(CC1)C[C@H](Nc1ncnc3c1nnn3C1CC(O)C(COS(N)(=O)=O)C1)c1ccccc12` (some centres unmarked) was tested, and the “IR (10 μM)” value was 96.0%. `COCC(=O)N[C@@H]1Cc2ccccc2[C@H]1Nc1ncnc2c1nnn2C1CC(O)C(COS(N)(=O)=O)C1` (some centres unmarked) was tested, and the “IR (10 μM)” value was 0.84%. In the case of `CO[C@H]1Cc2ccccc2[C@H]1Nc1ncnc2c1nnn2C1CC(O)C(COS(N)(=O)=O)C1` (some centres unmarked), the “IR (10 μM)” value is reported as 98.3%.

Source: patent US12378251B2, “Triazolopyrimidine compound and salt, composition and use thereof” (SHANGHAI INSTITUTE OF MATERIA MEDICA, CHINESE ACADEMY OF …, priority 2019, dated 2025)
